Tests used:
[1] = molecular target: human cytidine triphosphate synthase 1 (hCTPS1) (Homo sapiens, UniProt P17812); assay: Inhibition on hCTPS1 enzyme activity (ADP-Glo Kinase Assay); conditions: 40 nM hCTPS1, 120 µM ATP, 160 µM UTP, 60 µM GTP, 100 µM L-Glutamine, 120 minutes
Description: The following method was used to determine the degree of inhibition on human cytidine triphosphate synthase 1 (hCTPS1) enzyme activity by the compounds of the present disclosure in vitro. ADP-Glo™ Kinase Assay kit (catalog number V9102) from Promega was used in this method. The kit's manual may be referred for a detailed experimental procedure.
The experimental procedure was briefly described as follows: The reaction was performed in a buffer containing 50 mM 4-hydroxyethylpiperazineethanesulfonic acid (HEPES), 10 mM magnesium chloride, 5 mM potassium chloride, 0.01% Pluronic F127, and 4 mM dithiothreitol in a 384-well plate. First, 100 nL of gradient-diluted compound was transferred to the 384-well plate via a nanoliter acoustic liquid transfer system (manufacturer: Labcyte; catalog number: Echo 655), and 2.5 µL of buffer containing hCTPS1 was added, followed by incubation in a 25°C incubator for 10 minutes. Then 2.5 µL of buffer containing ATP and UTP was added, followed by incubation in a 25°C incubator for 10 minutes. Finally, 5 µL of buffer containing GTP and L-glutamine (L-Gln) was added to initiate the reaction. The final reaction system was: 40 nM hCTPS1, 120 µM ATP, 160 µM UTP, 60 µM GTP, 100 µM L-Glutamine, 1% DMSO, with a total assay volume of 10 µL. The reaction was performed for 120 minutes, then 10 µL of ADP-Glo Reagent was added, followed by incubation for 1 hour. Then 20 µL of Kinase Detection Reagent was added, and after 1 hour, the chemiluminescence value was recorded on a Microbeta microplate reader (manufacturer: PerkinElmer; catalog number: Envision). The percentage inhibition rates of the compounds at each concentration were calculated by comparing the chemiluminescence intensity ratio with a control group (0.1% DMSO). The IC50 value of the compounds were obtained by nonlinear regression analysis of compound concentration logarithm-inhibition rate using GraphPad Prism 5 software, as shown in Table 2. Table 2 IC50 data for inhibition on hCTPS1 enzyme activity by the compounds of the present disclosure

Amino acid sequences for entries named in this document (tags omitted).
UniProt P17812, whole entry: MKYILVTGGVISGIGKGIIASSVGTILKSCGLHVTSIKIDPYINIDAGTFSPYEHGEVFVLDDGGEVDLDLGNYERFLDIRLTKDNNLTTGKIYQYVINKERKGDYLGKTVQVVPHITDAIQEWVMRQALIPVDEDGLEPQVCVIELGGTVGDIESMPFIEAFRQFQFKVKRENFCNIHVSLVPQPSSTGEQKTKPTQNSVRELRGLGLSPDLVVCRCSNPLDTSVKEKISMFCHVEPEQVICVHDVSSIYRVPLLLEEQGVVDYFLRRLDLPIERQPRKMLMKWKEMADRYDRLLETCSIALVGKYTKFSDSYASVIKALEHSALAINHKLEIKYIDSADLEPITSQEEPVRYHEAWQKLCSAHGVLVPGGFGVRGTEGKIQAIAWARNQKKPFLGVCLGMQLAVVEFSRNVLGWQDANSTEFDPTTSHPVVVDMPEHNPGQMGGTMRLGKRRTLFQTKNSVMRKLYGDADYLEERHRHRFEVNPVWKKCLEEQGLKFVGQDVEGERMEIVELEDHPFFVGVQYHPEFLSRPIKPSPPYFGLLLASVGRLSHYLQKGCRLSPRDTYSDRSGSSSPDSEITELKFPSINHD

[2] = tested on: Jurkat (Clone E6-1) cells; assay: Inhibition on Jurkat cell proliferation (CellTiter-Glo cell viability); conditions: 72 hours culture
Description: (§1) The following method was used to determine the effect of the compounds of the present disclosure on Jurkat cell proliferation. Jurkat (Clone E6-1) cells were purchased from the Cell Resource Center of Shanghai Institutes for Biological Sciences, Chinese Academy of Sciences, and were cultured in RPMI 1640 medium containing 10% fetal bovine serum, 100 U penicillin, and 100 µg/mL streptomycin. Cell viability was measured using a CellTiter-Glo® Luminescent Cell Viability Assay kit (Promega, catalog number G7573).
The experiment was performed according to the kit's manual, briefly summarized as follows: test compounds were first dissolved in DMSO to prepare 10 mM stock solutions, which were then diluted with medium to prepare test samples. The final concentration range of the compounds was from 10000 nM to 1.52 nM. Cells in the logarithmic growth phase were seeded into a 96-well cell culture plate at a density of 1000 cells per well, and test compounds were added. The cells were cultured in a 37°C CO2 incubator for 72 hours. After culturing, 50 µL of CellTiter-Glo detection reagent was added to each well, the plate was shaken for 5 minutes, and allowed to stand for 10 minutes. The luminescence of each well was then measured using a microplate reader in Luminescence mode. The percentage inhibition at each concentration point was calculated by comparison with the control group (0.1% DMSO). Nonlinear regression analysis of compound concentration logarithm versus inhibition rate was performed using GraphPad Prism 9 software to obtain the IC50 values of the compounds for inhibiting cell proliferation, as shown in Table 1. Table 1 IC50 Data for Inhibition on Jurkat Cell Proliferation by the Compounds of the Present Disclosure

[3] = Pharmacokinetic testing in mice (plasma concentration by LC-MS/MS); conditions: ICR mice, male, Oral (10 mg/kg), fasted overnight
Description: ICR mice were used as test animals. Plasma concentrations of the test compounds at different time points were measured by LC/MS/MS after intragastrical administration of the reference compound STP-B and the compounds of the present disclosure, and the pharmacokinetic characteristics of the compounds of the present disclosure in mice were studied.
ICR mice, male, 30.8 to 38.0 g, purchased from Vital River Laboratory Animal Technology Co., Ltd.
An appropriate amount of the test compound was weighed, and an appropriate amount of DMA (N,N-dimethylacetamide), 30% Solutol HS15 (30% polyethylene glycol-15 hydroxystearate), and saline were added sequentially, mixed by ultrasonication and vortexing to prepare a 1 mg/mL dosing formulation. The ratio of DMA:30% Solutol HS15:saline was 10:10:80 (v/v/v).
ICR mice in each test compound injection group (9 mice per group) were fasted overnight and then administered intragastrically (PO, compound dose was 10 mg/kg, dosing volume was 10 mL/kg), and fed 4 hours after dosing.
About 0.1 mL of blood was collected from the orbit before dosing and at 0.25 h, 0.5 h, 1 h, 2 h, 4 h, 8 h, 10 h, and 24 h after dosing, and whole blood samples were placed in anticoagulant tubes containing EDTA-K2. After blood sample collection, samples were placed on ice and centrifuged to separate plasma (centrifugation conditions: 1500 g, 10 minutes). The collected plasma was stored at -40 to -20°C before analysis.
The content of test compounds in mouse plasma after intragastrical administration was determined by LC-MS/MS.

[4] = tested on: BxPC-3 cells (human primary pancreatic cancer cells); assay: Inhibition on BxPC-3 cell proliferation (CellTiter-Glo cell viability); conditions: 120 hours culture
Description: as §1, with “the proliferation of BxPC-3 cells (human primary pancreatic cancer cells). BxPC-3” for “Jurkat cell proliferation. Jurkat (Clone E6-1)”, “DMEM” for “RPMI 1640”, “determined” for “measured”, “using” for “using a”
The experimental method was performed according to the steps in the kit's manual, briefly described as follows: The test compound was first dissolved in DMSO to prepare a 10 mM stock solution, then diluted with medium to prepare test samples, with a final concentration range of the compound from 10000 nM to 1.52 nM. Cells in logarithmic growth phase were seeded into a 96-well cell culture plate at a density of 1000 cells per well, then the test compounds were added, and the cells were cultured in a 37°C CO2 incubator for 120 hours. After culture was completed, 50 µL of CellTiter-Glo detection reagent was added to each well, the plate was shaken for 5 minutes, then allowed to stand for 10 minutes, and then the luminescence value of each well of the sample was read on a microplate reader using Luminescence mode. The percentage inhibition rates of the compounds at each concentration point were calculated by comparing with the value of a control group (0.1% DMSO). Then nonlinear regression analysis was performed on compound concentration logarithm-inhibition rate in GraphPad Prism 9 software to obtain the IC50 values of the compounds for inhibiting cell proliferation, as shown in Table 4. Table 4 IC50 data for inhibition on BxPC-3 cell proliferation by the compounds of the present disclosure

| IC50 [1] | IC50 [2] | AUC AUC0-1(ng·h/mL) [3] | Half-life T1/2 [3] | Plasma concentration Cmax [3] | IC50 [4] | Compound |
| --- | --- | --- | --- | --- | --- | --- |
| 20.1 nM | 10.7 nM |  |  |  |  | CCOc1cncc(-c2ccc(NC(=O)C3(c4cc(NS(=O)(=O)C5CC5)ccn4)[C@@H]4COC[C@@H]43)cc2)n1 (some centres unmarked) |
|  | 7.42 nM | 92300 ng·h/mL | 2.69 h | 25900 ng/mL |  | CCOc1cncc(-c2cnc(C(=O)NC3(c4cc(NS(=O)(=O)CC)ncn4)CC4CC4C3)s2)n1 (centres unmarked) |
| 5.9 nM | 3.37 nM |  |  |  |  | CCOc1cncc(-c2ccc(NC(=O)C3(c4cc(NS(=O)(=O)C5CC5)ccn4)[C@@H]4CCC[C@@H]43)cc2)n1 (some centres unmarked) |
|  | 10.6 nM | 329711 ng·h/mL | 5.32 h | 36550 ng/mL |  | O=C(Nc1ccc(-c2cnn3ccc(Cl)cc23)cn1)C1(c2nccc(NS(=O)(=O)C3CC3)n2)CC2CC2C1 (centres unmarked) |
|  | 27.7 nM | 142000 ng·h/mL | 2.86 h | 36900 ng/mL |  | CCOc1cncc(-c2ccc(NC(=O)C3(c4cc(NS(=O)(=O)C5CC5)ncn4)Cc4ccccc4C3)cc2)n1 |
|  | 2.37 nM | 59792 ng·h/mL | 2.24 h | 45398 ng/mL |  | CCOc1cncc(-c2ccc(C(=O)NC3(c4cc(NS(=O)(=O)C5CC5)ncn4)CC4CC4C3)s2)n1 (centres unmarked) |
|  | 15.2 nM | 180249 ng·h/mL | 2.41 h | 45501 ng/mL |  | CCOc1cncc(-c2ccc(NC(=O)C3(c4nccc(NS(=O)(=O)C5CC5)n4)C[C@H]4CC[C@@H](C3)O4)c(F)c2)n1 (some centres unmarked) |
|  | 8.48 nM | 124000 ng·h/mL | 2.15 h | 14700 ng/mL |  | CCOc1cncc(-c2ccc(NC(=O)C3(c4cc(NS(=O)(=O)CC)ncn4)CC4CC4C3)cc2)n1 (centres unmarked) |
| 18 nM | 69.7 nM |  |  |  |  | CCOc1cncc(-c2ccc(NC(=O)C3(c4ccnc(NS(=O)(=O)C5CC5)n4)CC4CC4C3)cc2)n1 (centres unmarked) |
| 16.3 nM | 29.8 nM |  |  |  |  | CCOc1cncc(-c2ccc(NC(=O)C3(c4ccnc(NS(=O)(=O)C5CC5)n4)CCc4c(cnn4C)C3)cc2)n1 (centres unmarked) |
|  | 10.6 nM | 64400 ng·h/mL | 2.6 h | 15600 ng/mL |  | CCOc1cncc(-c2cnc(C(=O)NC3(c4cc(NS(C)(=O)=O)ncn4)CC4CC4C3)s2)n1 (centres unmarked) |
|  | 9.19 nM | 369691 ng·h/mL | 6.3 h | 38390 ng/mL | 24.1 nM | CCOc1cncc(-c2ccc(NC(=O)C3(c4nccc(NS(=O)(=O)C5CC5)n4)CC4CC4C3)c(F)c2)n1 (centres unmarked) |
|  | 5.59 nM | 66475 ng·h/mL | 2.06 h | 15294 ng/mL |  | CCOc1cncc(-c2ccc(NC(=O)C3(c4cc(NS(=O)(=O)C5CC5)ncn4)CC4CCC(C3)O4)c(F)c2)n1 (centres unmarked) |
|  | 8.35 nM | 151721 ng·h/mL | 5.73 h | 21738 ng/mL |  | O=C(Nc1ccc(-c2cnn3ccc(Cl)cc23)cc1)C1(c2cc(NS(=O)(=O)C3CC3)ncn2)CC2CC2C1 (centres unmarked) |
| 37.2 nM |  | 37484 ng·h/mL | 3.05 h | 34375 ng/mL | 41.3 nM | CCOc1cncc(-c2ccc(NC(=O)C3(c4ccnc(NS(=O)(=O)C5CC5)n4)CCOCC3)nc2)n1 |
|  | 13.8 nM | 113217 ng·h/mL | 2.35 h | 38635 ng/mL |  | CCOc1cncc(-c2ccc(NC(=O)C3(c4ccnc(NS(=O)(=O)C5CC5)n4)CC4CCC(C3)O4)cc2)n1 (centres unmarked) |
|  | 16.5 nM | 111000 ng·h/mL | 2.8 h | 28500 ng/mL |  | CCOc1cncc(-c2ccc(NC(=O)C3(c4cncc(NS(=O)(=O)C5CC5)n4)CC4CC4C3)nc2)n1 (centres unmarked) |
| 11 nM | 3.59 nM | 72611 ng·h/mL | 4.52 h | 13438 ng/mL |  | CCOc1cncc(-c2ccc(NC(=O)C3(c4cc(NS(=O)(=O)C5CC5)ncn4)CC4CC4C3)cc2)n1 (centres unmarked) |
| 25.3 nM | 72.3 nM |  |  |  |  | CCOc1cncc(-c2ccc(NC(=O)C3(c4ccnc(NS(=O)(=O)C5CC5)n4)Cc4ccccc4C3)nc2)n1 |

| Compound | IC50 [1] | IC50 [2] | AUC AUC0-1(ng·h/mL) [3] | Half-life T1/2 [3] | Plasma concentration Cmax [3] | IC50 [4] |
| --- | --- | --- | --- | --- | --- | --- |
| CCOc1cncc(-c2ccc(NC(=O)C3(c4cc(NS(=O)(=O)C5CC5)ccn4)[C@@H]4CN(C)C[C@@H]43)cc2)n1 (some centres unmarked) | 14.5 nM | 15.8 nM |  |  |  |  |

— patent EP4840855A1, “SULFONAMIDE DERIVATIVE, PREPARATION METHOD THEREFOR AND USE THEREOF” (dated 2026)
